In the library only some 3.7% were active in any assay of this set; here they are far more common.
miR-21 FLuc: miR-21 reporter, rising signal; HeLa miR-21 FLuc reporter, luciferase, 48 h; Potency, µM (titrated, usually from 38.3 µM); AID 2288; 340,000 tested, under 10 active; active = well fitted rising curve with a large enough effect; inconclusive = small, poorly fitted or top-dose-only effect; inactive = no such curve, though single readings can be large or run the other way;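 further: miR-21 action dims this reporter so a rising signal means less miR-21 action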
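HeLa cells stably expressing CMV-driven firefly luciferase with a downstream miR-21 binding sequence, endogenously expressing miR-21, were treated with titrations (up to about 40uM final) for 48 hours at 37 degree Celsius. Luciferase luminescence was read after lysis.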
A549 tox: counter-screen for Nrf2 inhibitors: cytotoxicity in A549 cells; A549 ARE-Fluc cells, CellTiter-Fluor viability, 18-24 h; Potency, µM (doses to about 46 µM), actives largely listed as inhibitors; hit rate 0.16% among 390,000
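Cytotoxicity counterscreen: CellTiter-Fluor fluorescence was measured in A549 ARE_Fluc cells after 18-24 h of compound exposure in a concentration series. The subsequent BugLite luminescent read reports ARE-luciferase activity.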
IL2 activator: IL-2 activation | IL-2 activation reporter assay, cell-based qHTS; stimulated with anti-CD3/CD4/CD28 beads; in transgenic mouse T cells | hit rate 0.065% among 360,000 | activation, % (series mostly up to about 46 µM); in the data active means activation above about 50%; inconclusive means mostly about 30% to 49%
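Quantitative HTS in unstimulated transgenic mouse T cells, with memory T cells as non-tolerant control and PMA/ionomycin as tolerance-bypass control. Compound pretreatment lasted 60 minutes before 18 h bead stimulation; EGFP/DsRed fluorescence read.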
Nrf2 block: inhibitors of Nrf2 signaling; A549 ARE-Fluc reporter, luciferase luminescence, 18-24 h; Potency, µM (highest dose often 46 µM), actives largely listed as inhibitors; AID 504444; hit rate 2.1% among 360,000; further: nearly all actives have a fitted effect of over 60% in size
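Reporter: ARE-Fluc in A549. Exposure: 18-24 h, 37 °C, 5% CO2, 5% FBS OPTI-MEM. Readouts: fluorescent cytotoxicity (CellTiter-Fluor), then luminescent Nrf2 signal after BugLite.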
ClpP mod: qHTS Assay for Activators of ClpP. ATP-dependent Clp protease proteolytic subunit (Bacillus subtilis (strain 168)), P80244. purified B. subtilis ClpP, FRET peptide cleavage, 20 min. Potency, µM (titrated, usually from 57.5 µM). hit rate 1.9% among 340,000; active means well fitted falling curve with a large enough effect; inconclusive means small, poorly fitted or top-dose-only effect; inactive means no such curve, though single readings can be large or run the other way; further: the source files actives as falling curves though it sought activators and does not explain the sign; nearly all actives have a fitted effect of over 65% in size
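Buffer: 100 mM Tris/HCl pH8, 100 mM KCl, 0.05% low protease BSA, 2.5% glycerol, 0.01% Tween-20. ClpP 10 microg/mL final; 20 min RT; delta FRET normalized to ADEP and DMSO controls.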
Nrf2 activator: activates Nrf2 signaling. Potency, µM (series often up to 46.1 µM), most hits filed as activators. AREc32 ARE-luciferase reporter (MCF7-derived line), luminescence, 24 h. hit rate 0.31% among 410,000. AID 624171; further: nearly all actives have a fitted effect of over 65% in size
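Luciferase luminescence (Steady-Glo, 30 min at room temperature) served as the read-out of ARE activation in AREc32 cells treated with compounds for 24 hr at 37 deg C.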
Numbers stand for hits. Unless noted, the call rests on the fitted dose curve; in most records, active means well fitted curve in the direction sought with a large enough effect; inconclusive means small, poorly fitted or top-dose-only effect, or another doubt; inactive means no such curve, though single readings can be large; an effect the other way counts as inactive or inconclusive.

Chains of the proteins cited; added tags and fusions are not shown.
ATP-dependent Clp protease proteolytic subunit (Bacillus subtilis (strain 168)), P80244, UniProt P80244, whole entry, looked up: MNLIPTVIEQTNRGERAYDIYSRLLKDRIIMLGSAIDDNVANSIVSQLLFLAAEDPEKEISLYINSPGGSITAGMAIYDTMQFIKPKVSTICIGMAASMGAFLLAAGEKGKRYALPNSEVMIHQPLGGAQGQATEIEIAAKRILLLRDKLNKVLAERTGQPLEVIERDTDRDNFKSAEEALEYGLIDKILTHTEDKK

What do the screens show for `Cc1cc(NC(=O)C2CCCN2C(=O)Nc2cccc(Cl)c2)ccc1-n1cnnn1` (stereo not drawn)?
miR-21 FLuc: inactive; A549 tox: inactive; IL2 activator: inactive; Nrf2 block: 16.4µM; ClpP mod: inactive; Nrf2 activator: inactive

How did Cc1ccc(NC(=O)N2CCCC2C(=O)Nc2ccc(-n3cnnn3)c(C)c2)cc1 (stereo not drawn) do in these assays?
miR-21 FLuc: inactive; A549 tox: inactive; IL2 activator: inactive; Nrf2 block: inactive; ClpP mod: inactive; Nrf2 activator: inactive

How did CCc1ccc2c(Cl)c(C(=O)N/N=C/c3c[nH]c4ccccc34)sc2c1 do in these assays?
miR-21 FLuc: inactive; A549 tox: inactive; IL2 activator: inactive; ClpP mod: 25.1µM; Nrf2 activator: inactive

What do the screens show for `CCC(c1nnnn1CCc1ccccc1)N(Cc1ccco1)Cc1cc2cc(C)cc(C)c2[nH]c1=O` (stereo not drawn)?
miR-21 FLuc: inactive; A549 tox: inconclusive; IL2 activator: inactive; Nrf2 block: inconclusive; ClpP mod: inactive; Nrf2 activator: inactive

How did CCC(c1nnnn1CCc1ccccc1)N(Cc1ccco1)Cc1cc2c(C)ccc(C)c2[nH]c1=O (stereo not drawn) do in these assays?
miR-21 FLuc: inactive; A549 tox: inconclusive; IL2 activator: inactive; Nrf2 block: 18.4µM; ClpP mod: inactive; Nrf2 activator: inactive

How did CC(=O)Nc1ccc(N=Nc2ccccc2)cc1[N+](=O)[O-] do in these assays?
A549 tox: inactive; IL2 activator: inactive; Nrf2 block: inconclusive; ClpP mod: inactive; Nrf2 activator: 7.94µM

How did CC(OC(=O)c1ccccc1OCC(=O)Nc1ccc(Br)cc1)C(=O)NC1CCCC1 (stereo not drawn) do in these assays?
ClpP mod: inactive

Results for O=C(CSc1nnc(CCCN2C(=O)c3cccc4cccc(c34)C2=O)n1-c1ccccc1)N1CCN(CCO)CC1 ?
miR-21 FLuc: inactive; A549 tox: inactive; IL2 activator: inactive; Nrf2 block: inactive; ClpP mod: 14.1µM; Nrf2 activator: inactive

How did CC1CCCCN1C(=O)CSc1nc2ccccc2nc1Cc1ccc(Cl)cc1 (stereo not drawn) do in these assays?
miR-21 FLuc: inactive; A549 tox: inactive; ClpP mod: inactive; Nrf2 activator: inactive

How did Cc1ccc(CSc2ccc(-c3ccc4c(c3)OCO4)nn2)cc1 do in these assays?
miR-21 FLuc: inactive; A549 tox: inactive; IL2 activator: inactive; Nrf2 block: inactive; ClpP mod: 28.2µM; Nrf2 activator: inactive

How did COc1ccccc1-n1ncc2c(=O)[nH]c(SCC(=O)Nc3cccc(F)c3)nc21 do in these assays?
miR-21 FLuc: inactive; A549 tox: inactive; ClpP mod: inactive; Nrf2 activator: inactive

What do the screens show for `CC1=C(C(=O)Nc2ccc(C)cn2)C(c2cnn(C)c2)C2=C(CCCC2=O)N1` (stereo not drawn)?
miR-21 FLuc: inactive; A549 tox: inactive; IL2 activator: inactive; Nrf2 block: inactive; ClpP mod: 6.31µM; Nrf2 activator: inactive

What do the screens show for `CCn1ncc(C2C(C(=O)Nc3ccc(C)cn3)=C(C)NC3=C2C(=O)CCC3)c1C` (stereo not drawn)?
miR-21 FLuc: inactive; A549 tox: inactive; IL2 activator: inactive; Nrf2 block: inactive; ClpP mod: inactive; Nrf2 activator: inactive

How did Cc1ccc(-c2nc(C)c(CCNS(=O)(=O)c3ccc(F)c(C(F)(F)F)c3)s2)cc1 do in these assays?
miR-21 FLuc: inactive; A549 tox: inactive; ClpP mod: inactive; Nrf2 activator: inactive

What do the screens show for `COc1ccc(Cc2nc3ccccc3n2Cc2ccccc2F)cc1`?
miR-21 FLuc: inactive; A549 tox: inactive; Nrf2 block: 18.4µM; ClpP mod: inactive; Nrf2 activator: inactive

Results for CCN1CCN(C(=O)c2cc3c(s2)-c2ccccc2S(=O)(=O)C3)CC1 ?
miR-21 FLuc: inactive; A549 tox: inactive; IL2 activator: inactive; Nrf2 block: inactive; ClpP mod: inactive; Nrf2 activator: inactive

What do the screens show for `O=C(c1cc2c(s1)-c1ccccc1S(=O)(=O)C2)N1CCN(Cc2ccccc2)CC1`?
miR-21 FLuc: inactive; A549 tox: inactive; IL2 activator: inactive; Nrf2 block: 18.4µM; ClpP mod: inactive; Nrf2 activator: inactive

What do the screens show for `COc1ccc(OC)c(C(=O)CSc2nc3ncccc3[nH]2)c1`?
miR-21 FLuc: inactive; A549 tox: inactive; IL2 activator: inactive; Nrf2 block: inactive; ClpP mod: 31.6µM; Nrf2 activator: inactive

How did COc1ccc(NC(=O)CSc2nc3ncccc3[nH]2)cc1OC do in these assays?
miR-21 FLuc: inactive; A549 tox: inactive; IL2 activator: inactive; Nrf2 block: inactive; ClpP mod: inactive; Nrf2 activator: inactive

How did COc1ccc(NC(=O)c2ccccc2)cc1NS(=O)(=O)c1ccc(F)cc1 do in these assays?
miR-21 FLuc: inactive; A549 tox: inactive; IL2 activator: inactive; Nrf2 block: inactive; ClpP mod: inactive; Nrf2 activator: inactive

Results for COc1ccccc1NS(=O)(=O)c1ccc(Cl)c(NC(=O)c2sc3cc(Cl)ccc3c2Cl)c1 ?
miR-21 FLuc: inactive; A549 tox: inactive; IL2 activator: inactive; Nrf2 block: inactive; ClpP mod: inactive; Nrf2 activator: inactive

What do the screens show for `COc1ccccc1NS(=O)(=O)c1ccc(NC(=O)c2ccccn2)cc1`?
A549 tox: inactive; IL2 activator: inactive; Nrf2 block: 20.6µM; ClpP mod: inactive; Nrf2 activator: inactive

How did COc1ccccc1NS(=O)(=O)c1cccc(NC(=O)c2sc3ccccc3c2Cl)c1 do in these assays?
miR-21 FLuc: inactive; A549 tox: inactive; IL2 activator: inactive; Nrf2 block: 9.2µM; ClpP mod: inactive; Nrf2 activator: inactive

How did COc1ccc(NC(=O)c2ccc(-c3ccccc3)cc2)cc1NS(=O)(=O)c1ccc(F)cc1 do in these assays?
miR-21 FLuc: inactive; A549 tox: inactive; IL2 activator: inactive; Nrf2 block: 14.6µM; ClpP mod: inconclusive; Nrf2 activator: inactive

Results for O=C(NCCc1ccc(Cl)cc1)c1cnc2sc(N3CCOCC3)nn2c1=O ?
miR-21 FLuc: inactive; A549 tox: inactive; Nrf2 block: inconclusive; ClpP mod: inactive; Nrf2 activator: inactive

What do the screens show for `COc1cc2nc(N3CCOCC3)nc(NC3CCN(C)CC3)c2cc1OC`?
ClpP mod: inactive

Results for COC(=O)c1ccccc1NC(=O)C1=CC(c2ccc(C)cc2)=NS(=O)(=O)N1C ?
miR-21 FLuc: inactive; A549 tox: inactive; Nrf2 block: 18.4µM; ClpP mod: inactive; Nrf2 activator: inactive

How did COC(=O)c1ccccc1NC(=O)C1=CC(c2cccs2)=NS(=O)(=O)N1C do in these assays?
miR-21 FLuc: inactive; A549 tox: inactive; IL2 activator: inactive; Nrf2 block: inconclusive; ClpP mod: inactive; Nrf2 activator: inactive
